The source of these data is PubChem BioAssay AID1135 (Sanford-Burnham Center for Chemical Genomics, 2008).

Chains of the proteins cited; added tags and fusions are not shown.
UniProt P05186, whole entry: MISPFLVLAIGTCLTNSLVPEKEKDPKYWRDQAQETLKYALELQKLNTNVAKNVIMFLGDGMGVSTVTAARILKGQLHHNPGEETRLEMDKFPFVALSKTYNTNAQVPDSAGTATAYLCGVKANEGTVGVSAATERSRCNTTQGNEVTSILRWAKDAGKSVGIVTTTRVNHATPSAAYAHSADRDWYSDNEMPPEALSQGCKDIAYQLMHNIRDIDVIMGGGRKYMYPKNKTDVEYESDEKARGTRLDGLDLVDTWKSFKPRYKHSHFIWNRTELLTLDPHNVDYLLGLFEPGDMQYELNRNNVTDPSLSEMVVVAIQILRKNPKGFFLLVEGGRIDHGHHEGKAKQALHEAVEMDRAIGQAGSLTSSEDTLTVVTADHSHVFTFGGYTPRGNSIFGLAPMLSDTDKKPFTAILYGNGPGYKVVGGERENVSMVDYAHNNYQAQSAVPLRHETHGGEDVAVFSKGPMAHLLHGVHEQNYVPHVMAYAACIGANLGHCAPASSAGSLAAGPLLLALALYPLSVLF

This is a selection; strong and weak results do not stand in their true shares. Some of these compounds have results that are not shown, active ones among them. Calls of active or inactive are those of the source.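 Rule for the calls: active = over 50% inhibition of tissue-nonspecific alkaline phosphatase at 20 µM in the single-dose screen; inactive = the rest.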

This assay has as its target Alkaline phosphatase, tissue-nonspecific isozyme (Homo sapiens) (UniProt P05186). The assay can be described thus: human TNAP enzyme inhibitors, primary screen, biochemical, luminescent, high phosphate acceptor level, uHTS (AID 1135).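 Note: plate controls were DMSO wells for no effect and EDTA-quenched wells as full inhibition for full effect.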 The conditions noted are these: purified TNAP, CDP-star luminescence, 1 M DEA; at 20 µM; stronger effect = higher value.
With `C=CCN1CCN(CCOC(=O)C(O)(c2ccccc2)c2ccccc2)CC1`, the inhibition (usually the relative decrease from the control value, in per cent) was inactive: -5.7%.

Take `CCN1CCCC(OC(=O)C2(O)c3ccccc3C=Cc3ccccc32)C1` (centres undefined): the inhibition was inactive: -5.4%.

For the compound `Cc1ccccc1C(=O)NCC1(N2CCCCC2)CCCCC1`, the inhibition is inactive: -7.2%.

Turning to `CN(C)C1CCCC1OC(=O)C(O)(c1ccccc1)c1ccccc1` (centres undefined), the inhibition was inactive: -5%.

`CC(C)N1C(=O)CC2(CCN(CCOC(=O)C(O)(c3ccccc3)c3ccccc3)CC2)C1=O`: the inhibition is inactive: 1%.

Take `O=C(NCC1(N2CCCCC2)CCCCC1)c1cc([N+](=O)[O-])ccc1Cl`: the inhibition was inactive: -1.3%.

In the case of `CN(C)c1cccc(C(=O)NCC2(N(C)C)CCCCC2)c1`, the inhibition is inactive: -10.6%.

Turning to `O=C(OC1CN2CCC1CC2)C(CO)(c1ccccc1)c1ccccc1` (centres undefined), the inhibition is inactive: -1.2%.

Take `COc1cccc(C(=O)NCC2(N3CCCCC3)CCCCC2)c1`: the inhibition is inactive: -2.9%.
